This assay is described as follows: PubChem AID 588753. As to conditions: Ricerca radioligand binding panel, % inhibition, at 10 µM, stronger effect = higher value.

This passage reports inhibition results from PubChem BioAssay AID588753 (Vanderbilt Specialized Chemistry Center, 2011).

This is a selection; strong and weak results do not stand in their true shares. Active and inactive are the calls of the source. No rule for the calls is given here.

Turning to `CC1(NC(=O)c2ccc(C#Cc3cccc(F)c3)cn2)COC1`, the inhibition is inactive: 11%. Where the note is “L-type Ca channel DHP site”, the inhibition came out at 14%. Further, for the setting “NMDA phencyclidine site”, the inhibition came out at 2%. In addition, the inhibition (adenosine A2a binding) came out at 1%. Besides, the inhibition (adrenergic alpha1A binding) was -13%. Further, the inhibition (dopamine transporter binding) is 31%. The inhibition (hERG binding) was 18%. Besides, the inhibition (leukotriene CysLT1 binding) is 8%. Moreover, under “norepinephrine transporter binding”, the inhibition came to 20%. For the same molecule, the inhibition (purinergic P2XY binding) worked out at 14%. Besides, the inhibition (serotonin 5-HT2B binding) was found to be 21%. In addition, the inhibition (serotonin transporter binding) is -3%. For the same molecule, the inhibition (sigma 1 binding) was 6%.
